One assay deals with rat hepatic artery. Kind of assay: Recording of tension: relaxation of isolated rat hepatic artery contracted with phenylephrine.
Another assay deals with rat mesenteric artery. The assay can be described thus: Recording of tension: relaxation of isolated rat mesenteric artery contracted with phenylephrine.
For assay [1], the system named is guinea pig basilar artery. The assay can be described thus: Recording of tension: relaxation of isolated guinea pig basilar artery contracted with prostaglandin F2α. Here is the method: Recording of tension. Experiments were performed on hepatic (400 μm outer diameter) and mesenteric (200 μm outer diameter) arteries from female Wistar-Hannover rats (200-250 g) and on basilar arteries (300 μm outer diameter) from male guinea pigs. Briefly, the arteries were cut into ring segments and mounted in tissue baths containing aerated physiological salt solution (5% CO2 and 95% O2; 37° C.; pH 7.4) as previously described (refs. 38, 43). All experiments were performed in the presence of N^G-nitro-L-arginine (0.3 mM) and indomethacin (10 μM) to eliminate any contribution of nitric oxide and cyclooxygenase products, respectively (refs. 38, 23). Relaxant responses were studied in preparations contracted with phenylephrine (rat hepatic and mesenteric arteries) and prostaglandin F2α (guinea pig basilar artery) (refs. 38, 43). When stable contractions were obtained, agonists were added cumulatively to determine concentration-response relationships.
Some preparations were pre-treated with capsaicin for 1 hour followed by washout for 20 minutes. Each vessel segment was exposed to only one treatment. The experiments were carried out with the approval of the local ethics committee.
Calculations and statistics. Relaxations are expressed as percentage reversal of the prevailing contraction (100% indicates a complete reversal to basal tension). […] Data are presented as means±s.e.mean (vertical lines in figures), and n indicates the number of vascular segments (animals) examined. pA2 and slope values of the Shild plots were estimated according to the Jackknife method (ref. 46). Statistical analysis was performed by using Student's t-test (two-tailed), Mann-Whitney U-test, or analysis of variance (ANOVA) on log transformed values (cyclic AMP) followed by Bonferroni Dunn's post hoc test (Statview 4.12). Statistical significance was accepted when P<0.05.

The subject of the next assay is cyclic AMP content. The assay can be described thus: Measurement of cyclic AMP content in rat hepatic artery segments. Here is the method: Measurement of CGRP and cyclic AMP. Segments of rat hepatic arteries were equilibrated for 1 hour in aerated physiological salt solution (5% CO2 and 95% O2; 37° C.; pH 7.4) containing N^G-nitro-L-arginine (0.3 mM) and indomethacin (10 μM).
Cyclic AMP: The amount of cyclic AMP after 5 min exposure to the test drugs was determined as previously described (ref. 44).

Setting [2] is: in presence of capsazepine (3 μM).

“And” between values parts separate entries of the source, which are not always exact repeats. Equal entries are not always repeated.

Regarding “CGRP: calcitonin gene-related peptide, vasodilator peptide”, the pEC50 of relaxation is 9.51±0.02 in the assay with rat hepatic artery (after pre-treatment with capsaicin (10 μM)); 9.56±0.04 and 9.46±0.01 in the assay on rat hepatic artery (control (agonist alone)); 8.54±0.13 with rat hepatic artery (in presence of 8-37 CGRP (2 μM)); 9.39±0.04 with rat hepatic artery (setting [2]); 8.72±0.16 in assay [1] (control (agonist alone)); 8.70±0.15 in assay [1] (setting [2]). The Emax of relaxation with rat mesenteric artery (control (agonist alone)) is reported as 99±1%; in the assay on rat mesenteric artery (setting [2]) it was 99±1%; in assay [1] (control (agonist alone)), 98±1%; in assay [1] (setting [2]), 99±1%. Further, the “tissue content of cyclic AMP” value with cyclic AMP content (anandamide 10 μM or CGRP 10 nM, 5 minutes) is on record as “increased”. For the same substance, the “tissue content of cyclic AMP after capsaicin pre-treatment” value with cyclic AMP content (segments pre-treated with capsaicin (10 μM)) is listed as “resistant to capsaicin”.

For the origin of these results see patent US20040204486A1, “Anandamide and structurally related lipids as vanilloid receptor modulators” (priority 2000, published 2004).
